From publication PMC6139040 (Clinical cancer research : an official journal of the …, 2018)
Where “and” joins values, the source holds several entries; their conditions need not be identical. Equal values may be shown once.

Columns and labels:
[1] = tested on: KPC-p53^R172H tumor tissues; test: p53 target gene expression in subcutaneous tumors, KPC-p53^R172H; conditions: one dose of ZMC1
K8484 (p53^R172H/+) = test: Cell growth inhibition; assay type: cell-based, murine; conditions: read-out: EC50 cell growth inhibition; 72 hours, MTS
[2] = tested on: KPC-p53^R172H pancreatic tumors; test: KPC efficacy / survival study, p53^R172H; assay type: in vivo; conditions: for median survival: ZMC1 5 mg/kg or Zn-1 5.6 mg/kg (molar equivalent) IP daily, vehicle 15.5 days; for mice with tumor regressions by ultrasound: ZMC1 5 mg/kg or Zn-1 5.6 mg/kg IP daily
p53^R172H tumor tissue = test: Cleaved caspase-3 IHC of tumor tissue, KPC p53^R172H; assay type: in vivo, KPC mice; conditions: for CC3 staining of treated tumors in comparison to controls: KPC-172 mice, ZMC1 5 mg/kg or Zn-1 5.6 mg/kg IP daily

Compound | gene expression of Puma, Noxa and p21 in tumor tissue [1] | EC50 (K8484 (p53^R172H/+)) [nM] | mice with survival more than 26 days ([2]; 5 mg/kg IP daily) | tolerability during efficacy study ([2]; 5 mg/kg IP daily, KPC mice) | median survival [2] [days] | mice with tumor regressions by ultrasound [2] | CC3 staining of treated tumors in comparison to controls (p53^R172H tumor tissue) | cleaved caspase-3 (CC3) staining versus vehicle control (p53^R172H tumor tissue; four doses of 5 mg/kg) | mice with remarkably good responses ([2]; Zn-1 5.6 mg/kg IP daily) | survival times of the mice with remarkably good responses ([2]; Zn-1 5.6 mg/kg IP daily, 5.6 mg/kg)
C/C(=N\NC(=S)N1CCC1)c1ccccn1 [ZMC1] | increased | 600 | 4 out of 8 | well tolerated | 26 | 5/8 | significantly increased | significantly greater level of staining | – | –
[Zn(ZMC1)2] [Zn-1] | – | – | – | – | 35 | 7/10 | significantly increased | – | 2/5 | 70 days and 81 days
